Target: human orexin-2 (hOX2) receptor (Homo sapiens, UniProt O43614)
Experiment: Intracellular Ca2+ mobilization assay (FLIPR), CHO(dHFr-) cells expressing hOX2, orexin-A as agonist
Settings: read-out: Kb (μM) OX2R (human), antagonist Kb=IC50/(1+[A]/EC50), orexin-A at EC80, antagonist applied 25 min before agonist
Procedure: Intracellular Ca^2+ Mobilization Assay
The Chinese Hamster Ovary (dHFr-) mutant cell line stably expressing human orexin-1 (hOX1) or human orexin-2 (hOX2) receptors were maintained in Dulbecco's Modified Eagle Medium (1×) with GlutaMax™1, 4500 mg/L D-Glucose and Sodium Pyruvate (Catalog No. 31966-021, Invitrogen, Carlsbad, Calif.), 5% dialyzed fetal calf serum (Catalog No. 26400-044), 100 μg/ml penicillin and 100 μg/ml streptomycin. The cells were seeded at 5×10^4 cells/well in the poly-D-lysine treated, 96-well, black/clear-bottomed plates (Catalog No. BD356640, BD Biosciences, Palo Alto, Calif.). […] The cells were washed five times with FLIPR buffer to remove excess dye and intracellular calcium mobilization, [Ca^2−]i were measured using a Fluorometric Imaging Plate Reader (FLIPR-96, Molecular Devices, Menlo Park, Calif.) as described previously (Malherbe et al., Mol. Pharmacol., 64, 823-832, 2003). […] The EC50 and EC80 values of orexin-A were measured daily from standard agonist concentration-response curves in CHO(dHFr-)-OX1R and -OX2R cell lines. […] Inhibition curves were determined by addition of 11 concentrations (0.0001-10 μM) of inhibitory compounds and using EC80 value of orexin-A as agonist (a concentration which gave 80% of max agonist response, determined daily). […]

Protein sequences, listed by entry. Tags and fused reporters are not part of them.
UniProt O43614, whole entry: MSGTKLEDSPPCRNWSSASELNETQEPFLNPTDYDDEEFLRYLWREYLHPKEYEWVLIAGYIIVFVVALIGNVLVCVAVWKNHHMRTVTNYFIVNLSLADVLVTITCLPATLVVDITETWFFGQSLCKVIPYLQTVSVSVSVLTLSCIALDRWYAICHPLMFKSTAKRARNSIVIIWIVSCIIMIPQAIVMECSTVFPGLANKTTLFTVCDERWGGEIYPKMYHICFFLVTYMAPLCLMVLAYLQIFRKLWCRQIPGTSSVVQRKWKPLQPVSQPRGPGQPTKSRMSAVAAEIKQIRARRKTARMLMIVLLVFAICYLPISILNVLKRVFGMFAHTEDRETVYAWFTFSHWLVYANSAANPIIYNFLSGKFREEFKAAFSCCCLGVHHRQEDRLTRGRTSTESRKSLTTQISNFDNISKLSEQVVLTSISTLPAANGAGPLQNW

Row | Kb | Structure (SMILES)
1 | 0.0031 µM | COc1cccc(OC)c1C(=O)N1CC[C@@H](Nc2nc3ccc(F)cc3s2)C1
2 | 0.0144 µM | COc1cccc(OC)c1C(=O)N1CC[C@@H](Nc2nc3cc(F)cc(F)c3s2)C1
